US10273517B2, “Methods of producing testosteronan polymers using testosteronan synthase” (The Board of Regents of the University of Oklahoma, priority 2011, dated 2019)

Sequences of proteins named here, by UniProt entry; tags and fusion partners are left off. Residues count along the entry.
UniProt C6XZB6, 26-772: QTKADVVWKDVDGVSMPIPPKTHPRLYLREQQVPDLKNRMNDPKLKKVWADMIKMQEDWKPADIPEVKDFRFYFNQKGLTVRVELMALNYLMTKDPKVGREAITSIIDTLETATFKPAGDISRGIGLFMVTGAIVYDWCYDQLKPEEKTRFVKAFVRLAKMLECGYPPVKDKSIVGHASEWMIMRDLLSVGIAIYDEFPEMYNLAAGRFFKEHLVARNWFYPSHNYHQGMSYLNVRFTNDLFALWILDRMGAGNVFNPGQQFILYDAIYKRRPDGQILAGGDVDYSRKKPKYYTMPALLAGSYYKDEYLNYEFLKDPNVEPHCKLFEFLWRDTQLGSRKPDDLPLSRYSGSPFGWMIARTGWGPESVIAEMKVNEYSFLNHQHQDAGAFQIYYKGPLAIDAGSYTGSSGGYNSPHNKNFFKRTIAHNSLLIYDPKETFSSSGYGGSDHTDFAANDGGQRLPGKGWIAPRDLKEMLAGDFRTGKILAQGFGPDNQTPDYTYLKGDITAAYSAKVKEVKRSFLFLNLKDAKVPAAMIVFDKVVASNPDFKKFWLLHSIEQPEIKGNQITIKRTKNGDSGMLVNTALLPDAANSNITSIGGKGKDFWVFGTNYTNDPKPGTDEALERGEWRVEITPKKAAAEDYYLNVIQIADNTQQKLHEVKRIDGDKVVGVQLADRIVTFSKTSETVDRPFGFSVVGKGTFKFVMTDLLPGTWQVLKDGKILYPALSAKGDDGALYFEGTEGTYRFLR
UniProt Q59289, 25-659: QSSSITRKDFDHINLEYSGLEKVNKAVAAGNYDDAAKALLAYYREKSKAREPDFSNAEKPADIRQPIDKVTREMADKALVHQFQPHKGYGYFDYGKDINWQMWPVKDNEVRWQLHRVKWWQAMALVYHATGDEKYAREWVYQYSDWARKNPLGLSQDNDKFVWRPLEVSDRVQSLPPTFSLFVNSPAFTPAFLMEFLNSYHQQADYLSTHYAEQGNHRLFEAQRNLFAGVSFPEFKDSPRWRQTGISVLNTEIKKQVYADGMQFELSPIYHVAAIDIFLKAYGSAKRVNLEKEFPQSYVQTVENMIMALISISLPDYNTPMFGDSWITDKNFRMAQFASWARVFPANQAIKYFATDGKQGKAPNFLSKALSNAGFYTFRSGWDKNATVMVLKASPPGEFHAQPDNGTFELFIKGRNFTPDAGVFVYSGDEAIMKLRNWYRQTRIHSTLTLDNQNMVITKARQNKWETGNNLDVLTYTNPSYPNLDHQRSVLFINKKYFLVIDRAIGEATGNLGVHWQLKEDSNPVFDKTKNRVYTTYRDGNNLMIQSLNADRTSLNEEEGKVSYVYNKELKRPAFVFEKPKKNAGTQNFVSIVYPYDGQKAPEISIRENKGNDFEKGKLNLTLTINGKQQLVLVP

Assays:
heparin lyase II = heparin lyase II (Pedobacter heparinus, UniProt C6XZB6); test: GAG degrading enzyme challenge: heparin lyase II; assay type: in vitro ADME
Source text: The synthetic polysaccharide has no possibility of any potential post-polymerization modifications made by Comamonas in vivo that could block the action of the GAG digesting enzymes. Because of this finding, it is believed that while CtTS is able to utilize heparosan as an acceptor molecule due to a hypothetical shared structural feature, this GAG is not the native substrate.

heparin lyase III = target: T1, heparin lyase III (Pedobacter heparinus, UniProt Q59289); test: GAG degrading enzyme challenge: heparin lyase III; assay type: in vitro ADME; settings: 0.2 mg/ml enzyme, 50 mM Tris, pH 7.2, 30° C., gel analysis
T1 construct: gift of Jian Liu, Univ. of North Carolina

Substance	sensitivity to degradation by heparin lyase II (heparin lyase II)	sensitivity to degradation by heparin lyase III (heparin lyase III)	sensitivity to degradation by heparin lyase III (heparin lyase III; listed as In vitro synthesized polysaccharide)
[-4-D-GlcUA-α1,4-D-GlcNAc-α1-]n [testosteronan]	did not digest	–	–
[-4-D-GlcUA-α1,4-D-GlcNAc-α1-]n [synthetic polysaccharide]	insensitive to degradation	insensitive to degradation	insensitive to digestion
